Measured values from ChEMBL document CHEMBL1138000, “Novel, potent and selective anilinoquinazoline and anilinopyrimidine inhibitors of p38 MAP kinase” (Bioorg Med Chem Lett, 2004).

By UniProt entry, the sequences of proteins in these tests, tags left out.
UniProt P00533, whole entry: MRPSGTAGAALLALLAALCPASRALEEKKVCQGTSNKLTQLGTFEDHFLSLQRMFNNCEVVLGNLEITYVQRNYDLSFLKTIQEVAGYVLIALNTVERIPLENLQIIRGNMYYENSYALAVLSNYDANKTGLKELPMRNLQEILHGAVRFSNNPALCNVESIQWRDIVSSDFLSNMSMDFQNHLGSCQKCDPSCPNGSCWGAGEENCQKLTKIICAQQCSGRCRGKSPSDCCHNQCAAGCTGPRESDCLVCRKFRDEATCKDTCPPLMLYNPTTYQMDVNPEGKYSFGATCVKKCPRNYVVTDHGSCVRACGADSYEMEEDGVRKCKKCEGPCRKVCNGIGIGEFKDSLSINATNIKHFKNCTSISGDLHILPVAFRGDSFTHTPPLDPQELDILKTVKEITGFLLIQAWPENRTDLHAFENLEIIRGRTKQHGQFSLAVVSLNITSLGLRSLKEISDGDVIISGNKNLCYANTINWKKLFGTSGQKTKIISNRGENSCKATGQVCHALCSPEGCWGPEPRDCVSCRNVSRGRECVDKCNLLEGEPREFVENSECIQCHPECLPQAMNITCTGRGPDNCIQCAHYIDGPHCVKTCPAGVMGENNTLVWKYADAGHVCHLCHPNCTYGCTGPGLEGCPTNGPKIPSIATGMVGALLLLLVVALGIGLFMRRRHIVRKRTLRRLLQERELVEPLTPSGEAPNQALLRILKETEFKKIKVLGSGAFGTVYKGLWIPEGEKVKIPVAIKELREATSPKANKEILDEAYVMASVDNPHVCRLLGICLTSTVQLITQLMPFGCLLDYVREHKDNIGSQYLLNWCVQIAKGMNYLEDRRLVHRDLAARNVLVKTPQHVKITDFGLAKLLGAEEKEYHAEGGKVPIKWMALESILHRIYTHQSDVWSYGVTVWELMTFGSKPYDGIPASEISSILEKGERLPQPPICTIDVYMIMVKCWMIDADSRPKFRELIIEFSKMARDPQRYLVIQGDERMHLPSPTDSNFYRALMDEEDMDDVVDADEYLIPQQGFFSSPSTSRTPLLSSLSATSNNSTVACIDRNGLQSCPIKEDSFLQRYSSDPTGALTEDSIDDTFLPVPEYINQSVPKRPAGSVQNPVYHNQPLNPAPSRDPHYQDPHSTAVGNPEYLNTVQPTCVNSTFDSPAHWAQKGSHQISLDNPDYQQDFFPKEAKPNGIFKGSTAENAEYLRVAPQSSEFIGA

Target: Epidermal growth factor receptor (Homo sapiens, UniProt P00533)

With `COc1cc2ncnc(Nc3cccc(Cl)c3)c2cc1OC` [TYRPHOSTIN AG-1478] the IC50 was 5 nM.
